This assay has as its target enzyme MGL (monoacyl glycerol lipase) (Mus musculus, UniProt O35678). Briefly: radioenzymatic assay of MGL activity (hydrolysis of [3H]2-oleoylglycerol by mouse brain homogenate). It is filed as biochemical. Particulars: read-out: IC50 (concentration which inhibits the control enzymatic activity of the MGL by 50%), mouse brain homogenate (37.5 μg protein), 20 min preincubation, 50 μM 2-OG with [3H]2-OG, ambient temperature.

The chains behind the UniProt entries cited, without tags or fusion partners.
UniProt O35678, whole entry: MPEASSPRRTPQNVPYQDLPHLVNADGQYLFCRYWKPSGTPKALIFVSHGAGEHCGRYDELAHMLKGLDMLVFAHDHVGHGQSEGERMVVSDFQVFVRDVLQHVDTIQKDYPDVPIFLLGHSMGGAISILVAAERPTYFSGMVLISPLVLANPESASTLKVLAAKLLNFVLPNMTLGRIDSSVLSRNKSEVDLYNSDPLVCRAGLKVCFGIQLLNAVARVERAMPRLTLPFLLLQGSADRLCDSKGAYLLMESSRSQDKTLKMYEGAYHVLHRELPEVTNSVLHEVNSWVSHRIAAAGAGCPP

With `O=C(OC(C(F)(F)F)C(F)(F)F)N1CC(CCNS(=O)(=O)c2ccc(Cl)cc2)C1`, the IC50 turned out to be 1.4 nM.
